Results: publication PMC10073475, “Effect of mTOR inhibitors on sodium taurocholate cotransporting polypeptide (NTCP) function in vitro” (Frontiers in Pharmacology, 2023)

Biological target: T1, sodium taurocholate cotransporting polypeptide (NTCP) (Homo sapiens, UniProt Q14973)
T1 sequence (Q14973 1-349): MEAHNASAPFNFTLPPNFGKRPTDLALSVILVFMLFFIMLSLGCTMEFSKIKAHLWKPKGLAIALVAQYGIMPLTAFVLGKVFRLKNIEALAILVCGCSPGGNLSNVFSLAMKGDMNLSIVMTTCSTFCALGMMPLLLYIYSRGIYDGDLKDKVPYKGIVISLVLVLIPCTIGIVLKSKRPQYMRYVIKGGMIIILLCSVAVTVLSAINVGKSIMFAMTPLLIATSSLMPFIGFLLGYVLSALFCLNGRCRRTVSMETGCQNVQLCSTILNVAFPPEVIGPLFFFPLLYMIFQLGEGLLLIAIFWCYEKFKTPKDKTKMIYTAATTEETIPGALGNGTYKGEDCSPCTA
Assay: cell-based
Design: gene SLC10A1
Conditions: Huh-7, read-out: % inhibition at 75 μM %

Work on Cc1c(C)c2c(c(C)c1O)CCC(C)(COc1ccc(CC3SC(=O)NC3=O)cc1)O2 (stereo not shown) [TGZ, Troglitazone] yielded an inhibition at 75 µM of 96%.
